Here are results for two molecules from patent US20130102527A1 (TRUSTEES OF DARTMOUTH COLLEGE, published 2013).

Test [1] deals with T1, trypsin-like site (β2 subunit) of 26S proteasomes purified from rabbit muscle (rabbit, UniProt G1SWK8 44-271).
T1 sequence: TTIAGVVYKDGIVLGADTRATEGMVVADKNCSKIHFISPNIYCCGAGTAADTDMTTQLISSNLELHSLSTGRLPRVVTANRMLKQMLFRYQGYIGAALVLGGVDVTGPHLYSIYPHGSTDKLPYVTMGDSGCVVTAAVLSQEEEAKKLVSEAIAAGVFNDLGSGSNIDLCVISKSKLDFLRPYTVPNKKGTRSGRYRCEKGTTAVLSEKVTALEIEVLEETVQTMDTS
As to the kind of experiment: cell-based or functional assay.

For test [2], the target named is T2, proteasome β2 subunit (trypsin-like site) in human cells and cell extracts (human, UniProt Q99436 44-277).
T2 sequence (looked up): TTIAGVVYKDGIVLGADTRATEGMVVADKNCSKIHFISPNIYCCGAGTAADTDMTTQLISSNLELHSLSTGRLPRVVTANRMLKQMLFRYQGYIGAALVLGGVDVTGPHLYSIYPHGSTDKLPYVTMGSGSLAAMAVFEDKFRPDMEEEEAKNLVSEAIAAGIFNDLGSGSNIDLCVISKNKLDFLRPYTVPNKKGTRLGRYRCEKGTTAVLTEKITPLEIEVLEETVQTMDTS
The test is described as follows: cell-based or functional assay.

B1: N3-Phe-Leu-Leu-Phe(4-NH2)-VS (45a) (peptide)
peptide: FLLF
modifications: N-terminal azido-phenylalanine (N3-Phe); P1 residue is Phe(4-NH2) with a vinyl sulfone (VS) warhead
Turning to B1, the “IC50 (µM) for sites in 26S proteasomes: Tr-L” value in test [1] was 0.11 µM.

B2: N3-Phe-Ala(4-pyridine)-Leu-Phe(4-CH2NH2-TFA)-VS (50) (peptide)
chain: FALF
modifications: N-terminal azido-phenylalanine (N3-Phe); P3 residue is Ala(4-pyridine); P1 residue is Phe(4-CH2NH2) with a vinyl sulfone (VS) warhead
In the case of B2, the “IC50 (µM) for sites: Tr-L; NCI-H929 cells, 6 h, PROTEASOMEGLO” value in test [2] is 0.27 µM.
